Experiments:
[1] = target: CLDN18.2 stably expressed on CHOS-CLDN18.2 cells (UniProt P56856); test: FACS; conditions: bispecific antibody
[2] = target: CLDN18.2 stably expressed on CHOS-CLDN18.2 cells (UniProt P56856); test: FACS; conditions: bispecific antibody; remark: listed apart in the source

EC50 [1]: 68 nM
EC50 [2]: 122 nM
Substance: QP3693 (AMG910, CLDN18.2/CD3 bispecific antibody molecule from Amgen, built according to US20200055932A1)
